Experiments:
[1] = biological target: human APJ-AT1R (angiotensin Type 1) double stable CHO cell line (Homo sapiens (Human), UniProt P30556+P35414); conditions: different concentrations of AngII with fixed concentration of pyr apelin-13
Experimental: (§1) The function of the inositol phosphate accumulation (IP1) was measured by Time-resolved fluorescence resonance energy (TR-FRET) at 620 nm and 665 nm respectively.

[2] = biological target: human APJ receptor expressed in the CHO cell line (Homo sapiens (Human), UniProt P35414); conditions: different concentrations of AngII with fixed concentration of pyr apelin-13; human APJ receptor expressed alone in CHO
Experimental: as §1

## pyroglutamated apelin-13 [pyr apelin-13]
[1]
  positive cooperativity on AT1R (IP1 accumulation): induces the positive cooperativity on the AT1R
[2]
  positive cooperativity (IP1 accumulation): no positive cooperativity observed
